Molecular target: T1, full-length human TSSK2 (Homo sapiens, UniProt Q96PF2)
T1 sequence (Q96PF2 1-358): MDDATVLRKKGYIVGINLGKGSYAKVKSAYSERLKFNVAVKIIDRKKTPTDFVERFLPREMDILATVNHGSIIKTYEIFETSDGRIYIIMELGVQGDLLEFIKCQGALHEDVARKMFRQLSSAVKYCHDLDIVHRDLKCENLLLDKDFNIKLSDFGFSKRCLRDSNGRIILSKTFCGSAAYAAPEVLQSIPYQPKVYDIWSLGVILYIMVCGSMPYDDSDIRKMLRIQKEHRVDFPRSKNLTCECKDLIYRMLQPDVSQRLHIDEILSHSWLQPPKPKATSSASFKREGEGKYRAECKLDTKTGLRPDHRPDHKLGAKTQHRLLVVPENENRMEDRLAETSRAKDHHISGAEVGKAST
Assay: Mobility shift assay: TSSK2 phosphorylation of 5-FAM-GS peptide
Type: biochemical
Conditions: HTS at 10 μM; cherry-picked compounds from DMSO stocks

SMILES: CN[C@@H]1C[C@H]2O[C@@](C)([C@@H]1OC)n1c3ccccc3c3c4c(c5c6ccccc6n2c5c31)C(=O)NC4 [staurosporine]
- TSSK2 inhibitor confirmed in concentration-response experiments after HTS: active
